Literature values, collected in US20050089932A1, “Novel proteins with targeted binding” (Avidia Research Institute, priority 2001, published 2005).

Conditions: commercial drugs; cited from earlier work

Substance | Human T1/2 [h]
Herceptin: Her2 Antibody | 144
Rebif: rIFN-b | 69
Pegasys: rIFN-a-PEG | 78
